This assay addresses Mu-type opioid receptor (Rattus norvegicus, UniProt P33535). Briefly: Tested for binding affinity against mu opioid receptor fby displacing [3H]- DAMGO radioligand from rat brain membrane preparations.

Sequences of proteins named here, by UniProt entry; tags and fusion partners are left off.
UniProt P33535, whole entry: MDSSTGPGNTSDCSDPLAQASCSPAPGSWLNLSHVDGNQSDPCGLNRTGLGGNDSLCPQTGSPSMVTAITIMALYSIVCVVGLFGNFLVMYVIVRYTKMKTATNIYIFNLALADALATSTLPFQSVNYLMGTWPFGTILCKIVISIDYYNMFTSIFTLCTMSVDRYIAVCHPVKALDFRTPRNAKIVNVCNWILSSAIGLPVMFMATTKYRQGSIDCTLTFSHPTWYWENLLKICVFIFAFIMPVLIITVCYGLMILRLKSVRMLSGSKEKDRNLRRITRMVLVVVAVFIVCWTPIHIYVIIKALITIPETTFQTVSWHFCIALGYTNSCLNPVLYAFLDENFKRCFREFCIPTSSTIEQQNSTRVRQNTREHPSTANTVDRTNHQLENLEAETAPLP

On to `Oc1ccc2c3c1O[C@H]1c4[nH]c5ccccc5c4C[C@@]4(O)[C@@H](C2)N(CC2CC2)CC[C@]314` [NALTRINDOLE], for which the Ki is 3.86 nM.

As a reminder, the Ki is a measure of affinity in units of concentration, obtained from inhibition or displacement.

(Values after ChEMBL document CHEMBL1126861 (J Med Chem, 1993).)
